This passage reports activation results from PubChem BioAssay AID938 (National Center for Advancing Translational Sciences (NCATS), 2007).

Only a part is listed here, and it is no random draw. Results filed as inconclusive are left out. Calls of active or inactive are those of the source. The call rests on the fitted dose curve; in most records, active means well fitted activation curve with a large enough effect; inconclusive means small, poorly fitted or top-dose-only effect; inactive means no such curve, though single readings can be large or run the other way.

This assay in a line: qHTS Assay for Agonists of the Thyroid Stimulating Hormone Receptor: Activators of Intracellular cAMP Concentrations in Parental HEK 293. Further: % of control where 0% means no effect; nearly all actives have a fitted effect of over 55% in size. Particulars: parental HEK293 CNG cAMP sensor, membrane potential fluorescence; at 57.1 µM unless noted. Background: qHTS replaces the single test concentration by a dilution series.
As to `COc1ccc(NC2CCN(CCc3ccccc3)CC2)c(OC)c1`, the activation is inactive: -14.7%. Take `O=C(OC1CN2CCC1CC2)C1c2ccccc2Oc2ccccc21` (stereo not given): the activation is inactive: 22.3%.

Regarding `NC1CCCCC1.NP(=O)(O)N(CCCl)CCCl`, the activation was inactive: 1.5% [at 11.4 µM]. The same measure for `CCOP(=O)(Cl)Cl`: inactive: -1.35%; for `N#CC1(Nc2ccccc2)CCN(CCc2ccccc2)CC1`: inactive: 11.2%.

As to `ClCCOP(OCCCl)OCCCl`, the activation was inactive: 20.5%.

Turning to `N/C(=N\O)c1c(N)no[n+]1[O-]`, the activation was inactive: 2.04%.

With `CCC(CO)(C(=O)OC1CN2CCC1CC2)c1ccccc1` (stereo not given), the activation was inactive: 4.3%. The same measure for `O=C(O)C1(Nc2ccccc2)CCN(Cc2ccccc2)CC1`: inactive: -8.6% [at 11.4 µM]; for `Fc1ccccc1NC1CCN(Cc2ccccc2)CC1`: inactive: 15.9%.
